Active and inactive are the calls of the source.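 How the source made its calls: active means compounds with IC50 below 20 µM; inactive means the rest.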
Biological target: Type-1 angiotensin II receptor (Homo sapiens) (UniProt P30556)
Test: AGTR1 antagonism selectivity check – cell-based, CHO-K1 PathHunter, luminescence, selectivity assay for APJ antagonist project, SAR follow-up (AID 488810);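 further: agonist challenge with angiotensin II at 50 nM final near its EC80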
Settings: CHO-K1 AGTR1 PathHunter beta-arrestin, antagonist mode

IC50: inactive: > 79 µM
SMILES: Cc1ccnc(SCc2cc(=O)c(OC(=O)c3ccc(Cl)c([N+](=O)[O-])c3)co2)n1

Source: PubChem BioAssay AID488810 (Sanford-Burnham Center for Chemical Genomics, 2010)
